The values that follow come from article PMC4594035, “Xenopus borealis as an alternative source of oocytes for biophysical and pharmacological studies of neuronal ion channels” (Scientific Reports, 2015).

Like-named read-outs stand apart in the source and are kept apart here.

In test [1] the target is T1, rat ASIC1a (Rattus norvegicus, UniProt P55926).
T1 construct: expressed in transfected cells; host or cells: Xenopus laevis and Xenopus borealis oocytes (cRNA injection)
T1 sequence (P55926 1-526): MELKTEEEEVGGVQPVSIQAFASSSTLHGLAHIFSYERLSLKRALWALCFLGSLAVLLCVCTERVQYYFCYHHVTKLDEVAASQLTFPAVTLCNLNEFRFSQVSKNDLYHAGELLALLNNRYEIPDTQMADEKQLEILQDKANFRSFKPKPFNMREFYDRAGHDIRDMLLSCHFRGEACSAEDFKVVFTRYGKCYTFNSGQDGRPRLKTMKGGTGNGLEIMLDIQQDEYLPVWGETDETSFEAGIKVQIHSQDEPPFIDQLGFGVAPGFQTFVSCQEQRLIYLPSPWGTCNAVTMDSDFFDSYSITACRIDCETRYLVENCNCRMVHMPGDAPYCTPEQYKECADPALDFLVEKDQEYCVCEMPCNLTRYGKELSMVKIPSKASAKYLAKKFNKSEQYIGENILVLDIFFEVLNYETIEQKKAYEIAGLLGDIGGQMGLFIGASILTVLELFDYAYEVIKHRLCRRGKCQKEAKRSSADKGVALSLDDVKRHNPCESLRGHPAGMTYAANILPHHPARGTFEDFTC
Put plainly: Inhibition of rat ASIC1a by Pc1a, two-electrode voltage-clamp in Xenopus oocytes. Format: cell-based. To be noted: n = 9–12; for Slope (Hill coefficient): mean; for IC50: rounded value, Fig. 4e. Here is the method: X. laevis (Xenopus Express) and X. borealis (Nasco) oocytes were surgically removed from anaesthetised (Tricaine methanesulfonate, MS-222) female frogs and treated with collagenase (1 mg/ml; Sigma type I) for defolliculation. cRNAs were synthesised using an mMessage mMachine cRNA transcription kit (Ambion Inc., Austin, TX, USA) and injected into stage V–VI oocytes at 4–200 ng per cell. Oocytes were stored at 17 °C in ND96 solution (96 mM NaCl, 1.8 mM CaCl2, 2 mM KCl, 2 mM MgCl2, 5 mM HEPES, pH 7.4) supplemented with 2.5 mM pyruvic acid, 50 μg/mL gentamicin, and either 2.5% horse serum or 0.5 mM theophylline. Membrane currents were recorded 2–10 days after injection under voltage-clamp (Axoclamp 900A or Geneclamp 500B, Molecular Devices, CA, USA) using two standard glass microelectrodes of 0.5–2 MΩ resistance when filled with 3 M KCl solution. Data acquisition and analysis were performed using pCLAMP software (Version 9.2 or 10, Molecular Devices, Sunnyvale, CA, USA). All experiments were performed at room temperature (18–21 °C) in ND96 solution. Experiments containing peptides were performed in ND96 solution containing 0.1% fatty acid free-bovine serum albumin (Sigma). Recordings were performed as previously described for ASICs[30][31], GABAAR[32][33], GlyR[34], KV[6][8][35], and NaV[36] channels.
All data were analysed using Prism 6.0 (GraphPad Software, San Diego, CA, USA). The Hill equation was fitted to normalised concentration-response curves to obtain the half-maximal response (EC50, IC50, or pH50) and Hill coefficient (nH). Voltage-dependent activation curves were fit with the Boltzmann equation to obtain the V0.5 (the voltage corresponding to half-maximal effect). Data are shown as mean and 95% confidence intervals, and n represents the number of oocytes for a given experiment (taken from at least three different frogs). Most equivalence testing comparing X. laevis and X. borealis oocytes was performed using an unpaired Student’s t-test with 95% confidence intervals. […] For both t-tests, it was assumed data was sampled from Gaussian populations, and P values were calculated from two-tailed tests. P < 0.05 was considered statistically significant, unless stated otherwise.

Test [2] concerns the target T1, rat ASIC1a. To be noted: X. laevis oocytes; read-out: IC50, reported literature value; cited from earlier work. The text has this:
The two-electrode voltage-clamp method was also applied to a range of ligand-gated ion channels expressed in X. laevis and X. borealis oocytes. The pH-sensitivity of activation and steady-state desensitisation for homomeric acid-sensing ion channels (ASICs) were similar between species for ASIC1a (Fig. 4a), ASIC1b (Fig. 4b), ASIC2a (Fig. 4c), and ASIC3 (Fig. 4d). To assess any differences in the pharmacological properties of ASICs expressed in oocytes from each species, the activity of two known peptide inhibitors of ASICs was tested. π-TRTX-Pc1a (Pc1a, also known as PcTx1) inhibited rat ASIC1 ...

As to `CC[C@H](C)[C@@H]1NC(=O)[C@@H](NC(=O)[C@H](CC(=O)O)NC(=O)[C@@H](N)CCC(=O)O)CSSC[C@@H]2NC(=O)[C@@H]3CSSC[C@@H](C(=O)N[C@H](C(=O)N4CCC[C@H]4C(=O)N[C@@H](CCCCN)C(=O)N[C@H](C(=O)N4CCC[C@H]4C(=O)N[C@@H](CCCCN)C(=O)N[C@H](C(=O)O)[C@@H](C)O)[C@@H](C)O)C(C)C)NC(=O)[C@H](C(C)C)NC(=O)[C@H](CCC(=O)O)NC(=O)[C@H](Cc4ccccc4)NC(=O)[C@H](CO)NC(=O)[C@H](CCCNC(=N)N)NC(=O)[C@H](CCCNC(=N)N)NC(=O)[C@H](CCCNC(=N)N)NC(=O)[C@H](CCCCN)NC(=O)[C@H](Cc4c[nH]c5ccccc45)NC(=O)[C@H](CSSC[C@H](NC(=O)CNC(=O)[C@H](CCCCN)NC(=O)[C@H](Cc4c[nH]c5ccccc45)NC(=O)[C@H](CCCCN)NC(=O)[C@@H]4CCCN4C1=O)C(=O)N[C@@H](C(C)C)C(=O)N[C@@H](CC(N)=O)C(=O)N[C@@H](CCCNC(=N)N)C(=O)N[C@@H](Cc1c[nH]cn1)C(=O)NCC(=O)N[C@@H](CC(=O)O)C(=O)N3)NC(=O)[C@H](CCC(=O)O)NC(=O)[C@H](CC(C)C)NC(=O)CNC(=O)[C@H](CCC(=O)O)NC2=O` [Pc1a], the “Slope (Hill coefficient)” value on rat ASIC1a [1] (X. borealis oocytes) was 1.60; at rat ASIC1a [1] (X. laevis oocytes), 1.44. Moreover, the half-inhibitory concentration (IC50) at rat ASIC1a [1] (X. borealis oocytes) was 1000 pM; against rat ASIC1a [1] (X. laevis oocytes) it was 1000 pM; on rat ASIC1a [2] it was 900 pM.

The IC50 is the midpoint of a concentration-inhibition curve.
